Experimental findings from patent US12629363B2, “Prophylaxis and treatment of angioedema” (PHARVARIS GMBH, priority 2020, dated 2026) are described below.

This data set is described as follows: Drug-drug interaction trial with itraconazole, PK (Example 5).

With hydroxyitraconazole, the “mean predose plasma concentration (Ctrough)” value (Day 4, itraconazole 200 mg dosing) worked out at 730 ± 93.5 ng/mL and the “mean predose plasma concentration (Ctrough)” value (Day 7, itraconazole 200 mg dosing) amounted to 1187 ± 213 ng/mL.
